Test results from US11981921B2, “TIL expansion processes using specific cytokine combinations and/or AKTi treatment” (Iovance Biotherapeutics, Inc., priority 2022, dated 2024).

Experiments:
TIL populations = test: pre-REP stimulation of TIL populations (B-cells and T-cells) with CD40L; type: cell-based
Protocol: As a result, pre-REP stimulation studies were designed to attempt to enhance the B-cell response in TIL populations. Briefly, frozen tumor digests were cultured by standard protocols (see, the Examples) either in the presence or absence of CD40L beginning on Day 0 and continuing for 48 h. Cells are then assayed for specific tumor recognition, with those responding populations undergoing a second expansion in the REP phase.

[1] = 1 mg vial, lot 10200121 (Cellgenix); cited from earlier work
[2] = after 14 days of expansion, vs control

Substance	mean increase of CD80+CD86+ B-cell population (TIL populations; 48 h treatment, compared to control TIL populations, flow cytometry)	markers of exhaustion on post-REP T-cells (TIL populations; [2])	relative size of CD39−CD69− subpopulation post-REP (TIL populations; [2])	viability and expansion from cryopreserved samples (TIL populations; compared to standard expansion protocols without stimulation)	CD8+ T-cell population (TIL populations; pre-REP)	amount of effector memory T-cells (TEM cells) (TIL populations; pre-REP)	central memory T-cells or CD45+ TEM cells (TIL populations; pre-REP)	number of CD4+ T-cells (TIL populations; pre-REP)	proportion of CD39-CD69− T-cells (TIL populations; pre-REP, relative to control)	robustness of pre-REP expansion on average (TIL populations; vs control conditions)	likelihood of pre-REP TIL populations to expand (TIL populations; vs control conditions, overall cell counts)	specific activity [1]
CD40L: CD40 ligand, TNF superfamily protein (SEQ ID NO: 238), used as CD40 agonist	roughly 20 fold	No significant difference	no significant difference	higher viability and greater expansion	without diminishing	significant increase	no similar increase	significant increase	significant increase	significantly more robust	three times more likely to expand	
rhIL-2: purified, lyophilized recombinant human interleukin-2												25×10^6 IU/mg
